Assays:
[1] = tested on: RSV; assay: Anti-RSV antiviral activity assay (syncytial formation, Hep-2 cells); assay type: cell-based, respiratory syncytial virus; conditions: purified peptides
Experimental: The assay utilized herein tested the ability of the peptides to disrupt the ability of HEp2 cells acutely infected with RSV (i.e., cells which are infected with a multiplicity of infection of greater than 2) to fuse and cause syncytial formation on a monolayer of uninfected an uninfected line of Hep-2 cells. The lower the observed level of fusion, the greater the antiviral activity of the peptide was determined to be. […]
After incubation, cells in control wells were checked for fusion centers, media was removed from the wells, followed by addition, to each well, of either Crystal Violet stain or XTT. […] The number of syncytia per well were then counted, using a dissecting microscope.
With respect to XTT (2,3-bis[2-Methoxy-4-nitro-5-sulfophenyl]-2H-tetrazolium-5-carboxyanilide inner salt), 50 μl XTT (1 mg/ml in RPMI buffered with 100 mM HEPES, pH 7.2-7.4, plus 5% DMSO) were added to each well. The OD450/690 was measured (after blanking against growth medium without cells or reagents, and against reagents) according to standard procedures. […]

By UniProt entry, the sequences of proteins in these tests, tags left out. Residues count along the entry.
UniProt P03420, 142-302: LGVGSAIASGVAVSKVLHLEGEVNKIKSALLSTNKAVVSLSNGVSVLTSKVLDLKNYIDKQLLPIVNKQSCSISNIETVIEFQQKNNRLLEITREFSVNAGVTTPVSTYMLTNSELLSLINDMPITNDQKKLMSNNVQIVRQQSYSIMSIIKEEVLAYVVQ

[2] = target: T1, DP107-like domain of the RSV F1 protein (Human respiratory syncytial virus A, UniProt P03420); assay type: binding
T1 construct: made in house
Experimental: After incubation and washing, unbound Fab-d is removed from the plates and bound Fab-d is quantitated. A no-inhibitor control should also be conducted.
Such an assay takes advantages of accepted radioligand and receptor binding principles.
Specifically, the DNA sequence corresponding amino acid residues 142-302 of the RSV F1 protein was amplified by PCR and cloned into the Xmn I site of the expression vector pMal-p2 (New England Biolab) to give MF5.1. These amino acid residues correspond to the extracellular domain of the RSV F1 protein including its DP107 region but excluding the DP178 region.
Cell fusion assays were performed with each of the peptides as described in Section 17 above. The binding affinity of each peptide was also measured in a competitive binding assay described in Section 5.6.1 above, wherein the concentration of each peptide necessary to bind to the M5.1 fusion protein (i.e., the B50 value), and thereby disrupt binding of biotin labeled T112 (T888) to the fusion protein, was measured.

## CC[C@H](C)[C@H](NC(=O)[C@H](Cc1ccccc1)NC(=O)[C@H](C)NC(=O)[C@H](CC(C)C)NC(=O)[C@H](CO)NC(=O)[C@H](CCC(N)=O)NC(=O)[C@H](CC(N)=O)NC(=O)[C@@H](NC(=O)[C@H](CCCCN)NC(=O)[C@H](CCC(=O)O)NC(=O)[C@H](CC(N)=O)NC(=O)[C@@H](NC(=O)[C@H](CCC(N)=O)NC(=O)[C@H](CO)NC(=O)[C@@H](NC(=O)[C@H](CO)NC(=O)[C@H](C)NC(=O)[C@H](CC(=O)O)NC(=O)[C@H](Cc1ccccc1)NC(=O)[C@H](CCC(=O)O)NC(=O)[C@H](CC(=O)O)NC(C)=O)[C@@H](C)CC)C(C)C)[C@@H](C)CC)C(=O)N[C@@H](CCCNC(=N)N)C(=O)N[C@@H](CCCCN)C(=O)N[C@@H](CO)C(=O)N[C@@H](CC(=O)O)C(=O)N[C@@H](CCC(=O)O)C(=O)N[C@@H](CC(C)C)C(=O)N[C@@H](CC(C)C)C(N)=O [T-67]
[1]
  anti-RSV antiviral activity: potent anti-viral activity
[2]
  binding affinity relative to T112: five times lower
